# Source: PubChem BioAssay
# Only some compounds are listed: those with a hit (about 0.43% of all), similar ones and a draw of the others.
# HCMV UL50-53 inh – inhibitors of HCMV UL50-UL53 interaction, biochemical, HTRF. HCMV UL50-UL53 nuclear egress complex (human cytomegalovirus). normalized percent inhibition. inhibition, % (no concentration beside the values). hit rate 0.15% among 190,000. AID 1918969, 2023; in the data active = inhibition above about 27%, passing the limit was not always enough
# GIV-Gai inh – blocks GIV peptide binding to rat Galpha-i3; P08753; Galpha-i3/FITC-GIV peptide fluorescence polarization, 90 min; stronger effect = lower value; scaled: aluminum fluoride 0%, vehicle 100%; percent of control (FP), % (no concentration beside the values); 210,000 tested, 0.42% active; AID 1224905;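 active = replicate mean at 85% of control or lower, very high polarization wells dropped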;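 also: wells of about 15 µL received 100 nL stock; the first replicate is given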
# * = called active by the depositor; · = no result; ! = not active in a repeat.
COc1ccc(N2C(=O)NC(=O)/C(=C\c3cc(Br)c(N4CCOCC4)o3)C2=O)cc1
  HCMV UL50-53 inh: 0; GIV-Gai inh: 111
O=C1NC(=O)N(c2ccc(Br)cc2)C(=O)/C1=C/c1ccc(N2CCOCC2)o1
  HCMV UL50-53 inh: -113; GIV-Gai inh: 16*
Cc1cccc(NC(=O)C(C)n2nc(C)c(Cc3ccccc3)c2C)c1C (configuration not stated)
  HCMV UL50-53 inh: 5; GIV-Gai inh: 98
Cc1n[nH]c(C)c1N1C(=O)c2cccc3c(N)ccc(c23)C1=O
  HCMV UL50-53 inh: ·; GIV-Gai inh: -42*
O=C1c2cccc3c(N4CCNCC4)ccc(c23)C(=O)N1c1ccc(Cl)cc1
  HCMV UL50-53 inh: -73; GIV-Gai inh: -91*
Nc1ccc2c3c(cccc13)C(=O)N(c1ccccc1)C2=O
  HCMV UL50-53 inh: -56; GIV-Gai inh: -30*
CN(C)c1ccc2c3c(cccc13)C(=O)N(c1ccccc1)C2=O
  HCMV UL50-53 inh: -23; GIV-Gai inh: 101
Cc1n[nH]c(C)c1N1C(=O)c2cccc3c(Br)ccc(c23)C1=O
  HCMV UL50-53 inh: -135; GIV-Gai inh: 99
Cc1cccc(N2C(=O)c3cccc4c(N5CCNCC5)ccc(c34)C2=O)c1
  HCMV UL50-53 inh: -98; GIV-Gai inh: 88
COC(=O)COc1cccc2c1OC(C)(C)C2
  HCMV UL50-53 inh: -7; GIV-Gai inh: 100
CCN1CCCC1CNC(=O)c1ccc2c(c1)N(Cc1ccccc1)C(=O)c1ccccc1S2(=O)=O (configuration not stated)
  HCMV UL50-53 inh: 4; GIV-Gai inh: 103
COc1ccc(OCC(O)CNC(=O)c2ccc(N(C)C)cc2)cc1 (configuration not stated)
  HCMV UL50-53 inh: -31; GIV-Gai inh: 102
CCN(CC)c1ccc2cc(C(=O)Nc3ccc(NC(C)=O)cc3)c(=O)oc2c1
  HCMV UL50-53 inh: -16; GIV-Gai inh: 83*
CCN(CC)c1ccc2cc(C(=O)NC3CCCCC3)c(=O)oc2c1
  HCMV UL50-53 inh: -24; GIV-Gai inh: ·
CCN(CC)c1ccc2cc(C(=O)Nc3cccc(C(F)(F)F)c3)c(=O)oc2c1
  HCMV UL50-53 inh: -5; GIV-Gai inh: 102

CCN(CC)c1ccc2cc(NC(=O)CCC(=O)O)c(=O)oc2c1
  HCMV UL50-53 inh: -38; GIV-Gai inh: 84*
O=C(NCc1ccco1)C1CCN(c2nc3ccccc3[nH]2)CC1
  HCMV UL50-53 inh: ·; GIV-Gai inh: 99
O=C(CSc1ncnc2ccccc12)NC1CCCC1
  HCMV UL50-53 inh: -10; GIV-Gai inh: ·
Cc1nc(-c2ccc3c(c2)CCN3C(=O)Cc2ccccc2Br)no1
  HCMV UL50-53 inh: -8; GIV-Gai inh: 113
CCOC(=O)C1=C(C)OC(N)=C(C#N)C1c1ccccc1C (configuration not stated)
  HCMV UL50-53 inh: ·; GIV-Gai inh: 108
CC(=O)OCc1cc(C2C(C#N)=C(N)OC(N)=C2C#N)c(C)cc1C
  HCMV UL50-53 inh: ·; GIV-Gai inh: -1.1*
CN(C)CCN1CCNCC1
  HCMV UL50-53 inh: -3; GIV-Gai inh: 103
CCOC(=O)c1c2ccc(O)cc2n2ccccc12
  HCMV UL50-53 inh: -49; GIV-Gai inh: 69*
CCOC(=O)c1c(C)n(C)c2ccc(O)cc12
  HCMV UL50-53 inh: -15; GIV-Gai inh: 108
COc1cccc(OC)c1C(=O)Nc1nnc(CC(C)(C)C)s1
  HCMV UL50-53 inh: -1; GIV-Gai inh: ·
O=C(NC1CCCC1)C1CCN(c2cncnc2N2CCOCC2)CC1
  HCMV UL50-53 inh: ·; GIV-Gai inh: 106
CCC(CC)NC(=O)CSc1nc(C)c(C)n1CC(C)C
  HCMV UL50-53 inh: -19; GIV-Gai inh: ·
N=C1c2ccccc2C(=O)C1c1ccccc1 (configuration not stated)
  HCMV UL50-53 inh: -70; GIV-Gai inh: 105
COc1ccc(C2NCCS2)cc1 (configuration not stated)
  HCMV UL50-53 inh: -32; GIV-Gai inh: 101
COc1ccc(C2C(C(C)=O)=C(C)N=c3s/c(=C\c4cc(C)n(-c5ccccc5)c4C)c(=O)n32)c(OC)c1 (configuration not stated)
  HCMV UL50-53 inh: -21; GIV-Gai inh: 142

# The list continues.
smiles | HCMV UL50-53 inh | GIV-Gai inh
CCN(CC)c1ccc(/C=c2\sc3n(c2=O)C(c2ccc(OC)cc2OC)C(C(C)=O)=C(C)N=3)c(OC)c1 (configuration not stated) | -20 | 85*
CC(C)Nc1ncnc2c1cnn2-c1ccc(F)cc1 | · | 95
CCOC(=O)c1c(NC(=O)CCCc2nc(-c3cccnc3)no2)sc(C)c1C | 1 | 105
Cc1nc2cc(-c3ccc(Cl)cc3)nn2c(C)c1CCC(=O)NO | -4 | 102
C=Cc1c(C)/c2[n-]/c1=C\c1[n-]c(c(CC)c1C)/C=c1\[n-]c3c(c1C)C(=O)C(C(=O)[O-])C=3c1[n-]c(c(C)c1CCC(=O)[O-])\C=2.[Cu].[Na+].[Na+] (configuration not stated) | 52* | ·
COc1ccc(C(CN)N2CCOCC2)cc1 (configuration not stated) | -4 | 101
O=C(c1ccc2nc(/C=C(\O)c3ccc(Cl)cc3)c(=O)[nH]c2c1)N1CCOCC1 | -95 | 68*
O=C(c1ccc2nc(/C=C(\O)c3ccc(Cl)cc3)c(=O)[nH]c2c1)N1CCN(c2ccco2)CC1 | -81 | 330
Fc1ccccc1-c1nnc2ccc(C(F)(F)F)cn12 | 57* | ·
O=C(O)c1ccccc1-c1nnc2c(Cl)cc(C(F)(F)F)cn12 | -22 | 99

# Already shown: an excerpt of the list.
smiles | HCMV UL50-53 inh | GIV-Gai inh
Fc1ccccc1-c1nnc2ccc(C(F)(F)F)cn12 | 57* | ·
O=C(O)c1ccccc1-c1nnc2c(Cl)cc(C(F)(F)F)cn12 | -22 | 99

# Following part.
smiles | HCMV UL50-53 inh | GIV-Gai inh
CCc1c(C)c(C#N)c2nc3ccccc3n2c1NCCN(C)C | -14 | ·
CCc1c(C)c(C#N)c2nc3ccccc3n2c1Nc1ccncc1 | · | 112
Cc1c(C#N)c2nc3ccccc3n2c(=O)/c1=C/NN1C(=O)CNC1=S | -25 | -31*
CCn1c(O)c(/C=c2/c(C)c(C#N)c3nc4ccccc4n3c2=O)n(CC)c1=S | · | -48*
COc1ccc(F)cc1-c1cc(N2CCN(S(=O)(=O)c3cc(Cl)ccc3OC)CC2)ncn1 | -28 | 103
CC(Sc1nc2ccccc2c(=O)n1C)C(=O)Nc1ccc2c(c1)OCCO2 (configuration not stated) | 34* | ·
Cc1ccccc1NC(=O)C(C)Sc1nc2ccccc2c(=O)n1C (configuration not stated) | -17 | 100
COc1cccc(C(=O)NC(Cc2ccccc2)C(=O)O)c1 (configuration not stated) | -5 | ·
O=C1/C(=C/C2CC=CCC2)SC(=S)N1CC1CCCO1 (configuration not stated) | · | 100
O=C1/C(=C/c2ccc(O)cc2)SC(=S)N1CC1CCCO1 (configuration not stated) | · | -24*

# Among those listed so far, 4 contain an aryl thioether with sulfur outside any ring.
smiles | HCMV UL50-53 inh | GIV-Gai inh
O=C(CSc1ncnc2ccccc12)NC1CCCC1 | -10 | ·
CCC(CC)NC(=O)CSc1nc(C)c(C)n1CC(C)C | -19 | ·
CC(Sc1nc2ccccc2c(=O)n1C)C(=O)Nc1ccc2c(c1)OCCO2 (configuration not stated) | 34* | ·
Cc1ccccc1NC(=O)C(C)Sc1nc2ccccc2c(=O)n1C (configuration not stated) | -17 | 100

# Additional results follow.
smiles | HCMV UL50-53 inh | GIV-Gai inh
O=C(NCc1ccc(F)cc1)c1ccc2c(=O)n(CCc3c[nH]c4ccccc34)c(=S)[nH]c2c1 | · | 104
CCc1ccc(C2C(C#N)=C(N)Oc3cc4c(cc32)OCO4)cc1 (configuration not stated) | · | 104
N#CC1=C(N)SC(N)=C(C#N)C1c1cc2c(cc1Cl)OCO2 | -26 | -0.4*
Cc1nc(Nc2ccc(NC(=O)CC(C)C)cc2)cc(N(C)C)n1 | -21 | 102
CC(=O)N1CCCc2cc(S(=O)(=O)NCC3CCCO3)ccc21 (configuration not stated) | · | 103
CCN=c1scc(-c2ccc(Br)s2)n1N=C1CCCCC1 | -15 | ·
O=c1[nH]c2ccc(NS(=O)(=O)c3cnc[nH]3)cc2s1 | -4 | 99
O=c1nc2sc3[nH]c(=O)sc3cc-2s1 | -78 | -47*
CC(C)c1ccc(Nc2nn3c(=O)c4ccccc4nc3s2)cc1 | 38* | 98
COc1ccc(Nc2nn3c(=O)c4ccccc4nc3s2)cc1 | -9 | ·
COc1ccc(C(=O)Nc2nc3n(n2)C(c2ccc(F)cc2)C=C(c2ccc(Cl)cc2)N3)cc1 (configuration not stated) | -17 | -66*
Cc1ccc(S(=O)(=O)Nc2nc3n(n2)C(c2ccc(Cl)cc2)C=C(c2ccccc2)N3)cc1 (configuration not stated) | -54 | -66*!
O=C(Nc1nc2n(n1)C(c1ccc(F)cc1)C=C(c1ccccc1)N2)c1ccc(Cl)cc1 (configuration not stated) | -27 | 141
Cc1ccc(C2C=C(c3ccc(Cl)cc3)Nc3nc(NC(=O)c4ccco4)nn32)cc1 (configuration not stated) | -52 | 33*
